{"source": "patent US4767770A", "about": "“Method of inhibiting aromatase” (Eli Lilly and Company, priority 1984, dated 1988)", "biological_target": "T1, aromatase (Rattus norvegicus, UniProt P22443)", "T1 sequence (P22443 1-508)": "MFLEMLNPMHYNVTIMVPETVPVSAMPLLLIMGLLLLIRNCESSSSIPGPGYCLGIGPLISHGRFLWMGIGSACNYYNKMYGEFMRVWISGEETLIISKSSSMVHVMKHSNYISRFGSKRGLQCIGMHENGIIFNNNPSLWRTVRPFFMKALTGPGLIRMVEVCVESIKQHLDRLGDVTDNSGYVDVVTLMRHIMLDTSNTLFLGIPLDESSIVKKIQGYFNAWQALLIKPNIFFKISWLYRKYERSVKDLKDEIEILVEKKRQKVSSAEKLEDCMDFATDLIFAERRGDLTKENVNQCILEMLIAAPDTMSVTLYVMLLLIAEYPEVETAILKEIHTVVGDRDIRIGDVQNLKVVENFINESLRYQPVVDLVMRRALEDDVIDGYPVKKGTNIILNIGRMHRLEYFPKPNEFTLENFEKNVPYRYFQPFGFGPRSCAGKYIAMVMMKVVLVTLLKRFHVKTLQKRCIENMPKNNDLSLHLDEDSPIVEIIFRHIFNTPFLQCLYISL", "experiment": "biochemical", "description": "Aromatase Inhibition in the Rat\nOvarian Microsome Assay\naromatase activity when substrate concentration is 0.1 μM."}
{"smiles": "CC1CSC(N(Cc2cccnc2)c2ccc(Cl)cc2)=N1", "note": "(stereo not shown) [N--(4-chlorophenyl)-N--(4,5-dihydro-4-methyl-2-thiazolyl)-3-pyridinemethanamine]", "values": [{"measurement": "EC50", "result": 26, "unit": "nM"}]}
